SMILES strings stand for the structures.

The chains behind the UniProt entries cited, without tags or fusion partners.
UniProt P42866, whole entry: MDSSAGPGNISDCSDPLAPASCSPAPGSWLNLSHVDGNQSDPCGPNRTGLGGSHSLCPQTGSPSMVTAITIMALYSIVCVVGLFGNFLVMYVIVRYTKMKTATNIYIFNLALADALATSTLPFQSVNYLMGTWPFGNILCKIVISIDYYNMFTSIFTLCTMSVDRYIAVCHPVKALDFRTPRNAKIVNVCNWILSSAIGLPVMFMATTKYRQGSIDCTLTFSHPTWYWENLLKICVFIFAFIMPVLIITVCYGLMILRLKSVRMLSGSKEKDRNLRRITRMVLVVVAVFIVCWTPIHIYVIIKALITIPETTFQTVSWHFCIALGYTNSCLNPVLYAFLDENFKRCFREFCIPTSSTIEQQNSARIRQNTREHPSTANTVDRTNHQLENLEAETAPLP

As a reminder, the Emax is the size of the effect at its maximum, as opposed to the concentration needed.

The target in this test is MOR (Mus musculus, UniProt P42866). Put plainly: biochemical. To be noted: read-out: MOR [35S]GTPγS Binding %Emax of DAMGO. (GTPγS resists hydrolysis and so accumulates on activated G proteins.)

As for `O=C(N[C@H]1CC[C@@]2(O)[C@H]3Cc4ccc(O)c5c4[C@@]2(CCN3CC2CC2)[C@H]1O5)c1cc2ccccc2c(Cl)n1` [Compound 8, 17-Cyclopropylmethyl-3,14β-dihydroxy-4,5α-epoxy-6α-(1-chloroisoquinoline-3-carboxamido)morphinan], the Emax worked out at 26.4 ± 0.9%.

These data come from publication PMC4380750 (Bioorganic & medicinal chemistry, 2015).
